# Reference: ChEMBL document CHEMBL1139370, “Discovery of 1-[9-(4-chlorophenyl)-8-(2-chlorophenyl)-9H-purin-6-yl]-4-ethylaminopiperidine-4-carboxylic acid amide hydrochloride (CP-945,598), a novel, potent, and selective cannabinoid type 1 receptor antagonist” (J Med Chem, 2009)
# Chains of the proteins cited; added tags and fusions are not shown.
# UniProt P21554, whole entry: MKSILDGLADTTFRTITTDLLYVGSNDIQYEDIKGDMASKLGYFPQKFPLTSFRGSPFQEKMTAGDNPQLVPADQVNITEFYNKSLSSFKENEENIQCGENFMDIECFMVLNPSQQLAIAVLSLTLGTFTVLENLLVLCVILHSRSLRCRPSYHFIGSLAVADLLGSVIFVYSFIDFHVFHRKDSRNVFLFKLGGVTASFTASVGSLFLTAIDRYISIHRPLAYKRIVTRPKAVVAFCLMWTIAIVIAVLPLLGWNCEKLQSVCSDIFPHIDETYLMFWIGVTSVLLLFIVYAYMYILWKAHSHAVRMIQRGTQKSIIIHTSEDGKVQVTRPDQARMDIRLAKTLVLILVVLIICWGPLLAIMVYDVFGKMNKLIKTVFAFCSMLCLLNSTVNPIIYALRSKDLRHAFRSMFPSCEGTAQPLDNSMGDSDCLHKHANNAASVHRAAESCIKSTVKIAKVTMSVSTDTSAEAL
# What was measured:
# [1] = target: T1, Cannabinoid receptor 1 (Homo sapiens, UniProt P21554); experiment: Antagonist activity against human CB1 receptor expressed in CHO-K1 cells by [35S]GTPgamma binding assay; format: functional, cell-based
# [2] = target: T1, Cannabinoid receptor 1; format: cell-based, HEK293
SMILES,Ki [1],Ki [2]
CCNC1(C(N)=O)CCN(c2ncnc3c2nc(-c2ccccc2Cl)n3-c2ccc(Cl)cc2)CC1 [OTENABANT],0.12 nM,0.7 nM
CN1CCN(c2ncnc3c2nc(-c2ccccc2Cl)n3-c2ccc(Cl)cc2)CC1,1.6 nM,–
